Curated experimental data: properties

Source: data files of OPERA 2.9 (Mansouri et al.), github.com/kmansouri/OPERA.

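These are experimental values that the OPERA curators gathered from public databases to train and test their QSAR models. A listed value is a point estimate from one report or more. Conditions of the individual experiments are not part of the data. Where a salt, mixture or single isomer is drawn, the source does not say that exactly this form was tested. Some upstream entries may be estimates or bounds without being marked so.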

The melting point is given in degrees Celsius. Boiling points are in °C, nominally at 760 mmHg. The octanol-water partition coefficient is given as log10; larger values mean a more lipophilic compound. Solubility in water is on a log10 molar scale (set defined at 25 °C). Vapor pressures (log10 mmHg) refer to near room temperature, 15 to 30 °C; higher is more volatile. fu is the fraction unbound in human plasma, from 0 to 1. "n/a" marks a cell with nothing listed here.

MP (°C),boiling point (°C),logP,log S (log10 mol/L),vapor pressure (log10 mmHg),fraction unbound,structure (SMILES),name
n/a,n/a,1.6,-1.648,-1.799,n/a,O=[N+]([O-])C1(Br)COCOC1,"5-Bromo-5-nitro-1,3-dioxane"
n/a,n/a,3.49,n/a,-2.966,n/a,Cc1ccc(S(=O)(=O)Cl)cc1,p-Toluenesulfonyl chloride
72.9,433,n/a,-7.901,-7.431,n/a,CCCc1ccc(-c2ccc(-c3ccc(CC)cc3)cc2F)cc1,n/a
n/a,n/a,n/a,-3.166,-6.618,n/a,O=C(c1ccccc1)c1ccc(O)cc1,4-Hydroxybenzophenone
-74,n/a,4.95,n/a,n/a,n/a,CCC(C)(C)c1ccccc1,tert-Pentylbenzene
92.3,n/a,1.7,-3.424,n/a,n/a,C=CC(=O)OCCCCOC(=O)Oc1ccc(C(=O)O)cc1,n/a
n/a,n/a,n/a,-3.587,n/a,0.05,O=C(CCCN1CC=C(n2c(=O)[nH]c3ccccc32)CC1)c1ccc(F)cc1,Droperidol
n/a,n/a,3.5,-2.23,n/a,n/a,Cc1ccccc1Br,2-Bromotoluene
n/a,n/a,n/a,-3.934,-1.604,n/a,CC(C)CCOCCc1ccccc1,3-Methylbutyl 2-phenylethyl ether
n/a,n/a,-0.25,n/a,-4.28,n/a,Nc1ncccc1O,2-Amino-3-hydroxypyridine
n/a,n/a,n/a,-3.302,-1.018,n/a,CCCCC/C=C/CCC=O,"4-Decenal, (4E)-"
n/a,n/a,0.4,-1.773,n/a,n/a,CCOC(=O)n1ccn(C)c1=S,Carbimazole
200,n/a,1.36,n/a,n/a,n/a,Cc1cc(C(=C2C=CC(=N)C=C2)c2ccc(N)cc2)ccc1N.Cl,C.I. Basic Violet 14
221.5,n/a,n/a,n/a,n/a,0.5575,CN(C)[C@@H]1C(O)=C(C(N)=O)C(=O)[C@@]2(O)C(O)=C3C(=O)c4c(O)ccc(Cl)c4[C@@H](O)[C@H]3C[C@@H]12,Demeclocycline
n/a,72,4.4,-5.558,2.063,n/a,FC(F)(F)OC(F)(F)OC(F)(Cl)C(F)(F)Cl (stereo unspecified),"1,2-dichloro(perfluoro-1-(methoxymethoxy)ethane)"
n/a,390,0.5,-2.09,n/a,n/a,CC(=O)Nc1cc(S(=O)(=O)O)cc(N)c1O,"Benzenesulfonic acid, 3-(acetylamino)-5-amino-4-hydroxy-"
n/a,n/a,4,-4.937,n/a,n/a,N[C@H](Cc1cc(I)c(Oc2cc(I)c(O)c(I)c2)c(I)c1)C(=O)O,Dextrothyroxine
n/a,n/a,0.6,-3.878,n/a,n/a,CC1(C)O[C@@H]2C[C@H]3[C@@H]4C[C@H](F)C5=CC(=O)CC[C@]5(C)[C@H]4[C@@H](O)C[C@]3(C)[C@]2(C(=O)CO)O1,Flurandrenolide
-21,n/a,3.07,-1.766,n/a,n/a,CC(C)C[C@H]1OC[C@@H](C)CO1,"1,3-Dioxane, 5-methyl-2-(2-methylpropyl)-, cis-"
121.8,n/a,-3.26,n/a,n/a,n/a,COC(=O)CCN[N+](C)(C)C.[Br-],n/a
85.5,n/a,n/a,n/a,-4.465,n/a,Brc1cc(Br)c(Oc2ccccc2)c(Br)c1,"2,4,6-Tribromodiphenyl ether"
-15.5,n/a,n/a,-5.083,n/a,n/a,CCCCCCOC(=O)CCCCC(=O)OCCCCCC,Dihexyl hexanedioate
16,n/a,2.28,n/a,-1.875,n/a,CCOC(=O)N(CC)c1ccccc1,"Carbanilic acid, N-ethyl-, ethyl ester"
n/a,189.1,-0.8,n/a,n/a,n/a,O=S(=O)(O)c1ccccc1,Benzenesulfonic acid
n/a,328.7,0.76,-5.48,-5.634,n/a,O=c1[nH]sc2ccccc12,"1,2-Benzisothiazolin-3-one"
n/a,234.8,4.6,-4.373,-0.999,n/a,C=CCCCCCCCC(=O)OC,methyl 9-decenoate
184,n/a,n/a,-3.25,n/a,n/a,CC(=O)Nc1ccc(I)cc1,"Acetamide, N-(4-iodophenyl)-"
356,n/a,n/a,-7.766,n/a,n/a,N#CC(/N=C/c1ccccc1[O-])=C(C#N)/N=C/c1ccccc1[O-].[Ni+2],n/a
50,n/a,n/a,n/a,-1.388,n/a,CC(C)C1CCC(O)CC1 (stereo unspecified),4-Isopropylcyclohexanol
202.6,n/a,n/a,-4.621,n/a,n/a,CCCCCCC(O)CCCCCCCCCCC(=O)NCCO (stereo unspecified),"Octadecanamide, 12-hydroxy-N-(2-hydroxyethyl)-"
n/a,344.3,4.3,-5.672,n/a,n/a,CC1(C)CC/C(=C\c2ccc(Cl)cc2)C1=O,"(E)-5((4-Chlorophenyl)methylene)-2,2-dimethylcyclopentanone"
n/a,n/a,n/a,-4.54,-6.444,n/a,COC(=O)c1nc(Cl)c(Cl)nc1N,"Methyl 3-amino-5,6-dichloropyrazine-2-carboxylate"

Excerpt, the final 5 entries:

structure (SMILES)	name	MP (°C)	boiling point (°C)	logP	log S (log10 mol/L)	vapor pressure (log10 mmHg)	fraction unbound
N#CC(/N=C/c1ccccc1[O-])=C(C#N)/N=C/c1ccccc1[O-].[Ni+2]	n/a	356	n/a	n/a	-7.766	n/a	n/a
CC(C)C1CCC(O)CC1 (stereo unspecified)	4-Isopropylcyclohexanol	50	n/a	n/a	n/a	-1.388	n/a
CCCCCCC(O)CCCCCCCCCCC(=O)NCCO (stereo unspecified)	Octadecanamide, 12-hydroxy-N-(2-hydroxyethyl)-	202.6	n/a	n/a	-4.621	n/a	n/a
CC1(C)CC/C(=C\c2ccc(Cl)cc2)C1=O	(E)-5((4-Chlorophenyl)methylene)-2,2-dimethylcyclopentanone	n/a	344.3	4.3	-5.672	n/a	n/a
COC(=O)c1nc(Cl)c(Cl)nc1N	Methyl 3-amino-5,6-dichloropyrazine-2-carboxylate	n/a	n/a	n/a	-4.54	-6.444	n/a